From US5372813A (priority 1992, dated 1994)

System: 5-HT reuptake complex
Assay: in vivo blocking of 5-125I-6-NQP brain binding by co-injected drugs
Design: species or system rat
Details: in words; for radioactivity in prefrontal cortex, olfactory tubercles, hippocampus and hypothalamus / radioactivity in the cerebellum: co-injection 2 mg/kg, 6 h
[1] = co-injection 2 mg/kg paroxetine

Row | Structure (SMILES) | radioactivity concentrations in brain regions (co-injection, LSD 0.5 mg/kg, GBR-12909 and DMI 2 mg/kg) | radioactivity in prefrontal cortex, olfactory tubercles, hippocampus and hypothalamus | radioactivity in the cerebellum | blocked brain tissue radioactivity concentrations and unblocked cerebellum (co-injection 2 mg/kg paroxetine, 4 h post injection) | cerebellar radioactivity [1] | prefrontal cortex and hypothalamus radioactivity [1] | total binding of 5-125I-6-NQP in all rat brain regions measured [1]
1 | CNCCCN1c2ccccc2CCc2ccccc21 [DMI] | little effect on radioactivity concentrations in these regions | – | – | – | – | – | –
2 | CNCCC(Oc1ccc(C(F)(F)F)cc1)c1ccccc1 (racemic) [fluoxetine, (±)-N--Methyl-3-Phenyl-3-[(ααα-trifluoro-p-tolyl)oxy]propylamine] | – | greatly reduced radioactivity | only a small change in radioactivity in the cerebellum | – | – | – | –
3 | Fc1ccc([C@@H]2CCNC[C@H]2COc2ccc3c(c2)OCO3)cc1 [paroxetine] | – | greatly reduced radioactivity | only a small change in radioactivity in the cerebellum | approximately equal at 4 h post injection | decreased only slightly | greatly diminished | decrease in total binding in all rat brain regions measured
